The target in the assay is sEGFR domain III (residues 310-512) (human) (UniProt P00533). The experiment in a line: SPR (Biacore T100), steady state, sEGFRdIII amine-coupled to CM5 chip. A general note: In SPR one partner is held on a chip, and binding of the other changes the refractive index at the surface.

What is called Kd is a measure of binding affinity in units of concentration. Higher therefore signals weaker binding.

Take Fab 425: the Kd is 91 nM.

These data come from patent publication US20160152711A1.
